In patent US7371745B2, “Bis-transition-metal-chelate probes” (Rutgers, The State University of New Jersey, priority 2002, dated 2008) one finds Kd data, which are given here for two substances.

Sequences of proteins named here, by UniProt entry; tags and fusion partners are left off. Residues count along the entry.
UniProt P0ACJ8, 2-210, added parts left off: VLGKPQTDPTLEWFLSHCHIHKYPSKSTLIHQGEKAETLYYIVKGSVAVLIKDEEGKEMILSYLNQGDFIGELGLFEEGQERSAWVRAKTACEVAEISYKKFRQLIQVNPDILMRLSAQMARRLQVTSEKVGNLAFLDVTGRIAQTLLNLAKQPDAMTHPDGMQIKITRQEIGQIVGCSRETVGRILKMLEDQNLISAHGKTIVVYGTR

One assay addresses CAP-His6 (Escherichia coli, UniProt P0ACJ8). The conditions noted are these: read-out: equilibrium dissociation constant (KD); 50 nM probe titrated with 0-3 μM CAP-His6, buffer C, 25° C.
The target of a further assay is (CAP-His6)-DNA^F complex (Escherichia coli, UniProt P0ACJ8). Conditions: read-out: equilibrium dissociation constant (KD); 5 nM DNA^F and 50 nM CAP-His6 titrated with 0-3.2 μM probe, buffer C, 25° C.

As for (Ni^2+-NTA)2-Cy3, the values for the dissociation constant (Kd) at CAP-His6 and at (CAP-His6)-DNA^F complex were 1 µM and 0.9 µM, respectively.

Regarding (Ni^2+-NTA)2-Cy5, the Kd at CAP-His6 was 0.4 µM; on (CAP-His6)-DNA^F complex it was 0.3 µM.

As usually defined, the Kd is the constant that tells how readily two partners part at equilibrium.
